Measured values reported in paper PMC5103216, “Novel Agonist Bioisosteres and Common Structure-Activity Relationships for The Orphan G Protein-Coupled Receptor GPR139” (Scientific Reports, 2016).

The chains behind the UniProt entries cited, without tags or fusion partners.
UniProt Q6DWJ6, whole entry: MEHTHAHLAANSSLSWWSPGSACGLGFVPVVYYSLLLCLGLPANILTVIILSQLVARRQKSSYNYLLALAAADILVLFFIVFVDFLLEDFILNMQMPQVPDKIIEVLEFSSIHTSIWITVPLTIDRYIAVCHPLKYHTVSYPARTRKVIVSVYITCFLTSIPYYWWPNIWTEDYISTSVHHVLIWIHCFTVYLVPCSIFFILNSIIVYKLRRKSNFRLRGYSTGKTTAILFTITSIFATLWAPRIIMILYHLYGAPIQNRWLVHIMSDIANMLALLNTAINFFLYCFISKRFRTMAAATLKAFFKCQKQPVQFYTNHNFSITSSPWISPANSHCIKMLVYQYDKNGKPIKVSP

These compounds were tested against GPR139 (Homo sapiens, UniProt Q6DWJ6) (assay: Fluo-4 Ca2+-assay in CHO-k1 cells stably expressing GPR139 (CHO-GPR139)). Details: values in Figure 5 and Supplementary Chart 1.
Type: cell-based
Method: Compound 1a[11] was kindly provided by H. Lundbeck A/S, Denmark. Compound 7c (Enamine no: Z31449867) was tested as a racemate, as the (S)-form described by Janssen et al. was not commercially available. All compounds were dissolved to 20 mM in DMSO (Sigma, D2650) and subsequently diluted in a HEPES buffer (HBSS (Invitrogen, 14025) supplemented with 20 mM HEPES + 1 mM MgCl2 + 1 mM CaCl2, pH = 7.4) to a final concentration 0.5% DMSO in the assay. The DMSO level was kept constant for all concentrations of all compounds. DMSO was confirmed not to have any activity by itself at this concentration. L-Tryptophan (T0254) and L-Phenylalanine (P2126) were obtained from Sigma-Aldrich and dissolved directly in buffer.
All compounds were tested on a CHO-k1 cell line stably expressing GPR139 (CHO-GPR139) kindly provided by H. Lundbeck A/S, Denmark, and also on a CHO-k1 cell line stably expressing the M1 receptor (CHO-M1) (The Missouri S&T cDNA Resource Center, #CEM100TN00) to check for specificity. The CHO-GPR139 was grown in Dulbecco’s modified eagle medium (DMEM) F12-Kaighn’s (Gibco, 21127) supplemented with 10% dialysed fetal bovine serum (Gibco, 26400, United States origin), 1% GlutaMAX^TM-I (100X) (Gibco, 35050), and 100 units/mL penicillin and 100 μg/mL streptomycin (Gibco, 15140) and 1.0 mg/mL geneticin (Invitrogen, 1181103). CHO-M1 was grown in Ham’s F12 (Gibco, 21765) supplemented with 10% fetal bovine serum (Gibco, 10270, South America origin) +100 units/mL penicillin and 100 μg/mL streptomycin (Invitrogen, 15140–122) and 0,25 mg/mL geneticin (Life Technologies, 11811–031). Compound 1a and carbamoylcholine chloride (Sigma-Aldrich, C4382) were used as positive controls in the two cell lines, respectively.
30.000 cells/well were plated in black 96-well plates with flat clear bottoms (Corning, Falcon, 353219) and incubated overnight. The Fluo-4 dye loading solution (Invitrogen, F36206) was prepared according to the manufacturer’s instructions by dissolving it in HEPES buffer supplemented with 2.5 mM probenecid. 50 μL dye loading solution was added to each well. Cells were incubated with the Fluo-4 dye for 60 min at 37 °C, then washed with 100 μL HEPES buffer. 100 μL HEPES buffer supplemented with 2.5 mM probenecid was then added to each well and incubated in 10 minutes at 37 °C before measurement. 33 μL of the test compounds (4x concentrated) were added automatically after baseline measurements. Intracellular calcium change was recorded on a NOVOstar instrument (BMG Labtech) at 37 °C with an excitation filter of 485 nm and an emission filters 520 nm. Data originate from three independent experiments in triplicates.

Structure (SMILES)	EC50 [µM]
O=C(CNC(=O)c1ccc2c(c1)OCO2)NCc1ccc2c(c1)OCO2	> 10
CC(Oc1cccc(Br)c1)C(=O)NNC(=O)c1ccc2[nH]cnc2c1 (stereo not shown)	> 10
CCn1c(C)nc2cc(C(=O)NNC(=O)Cc3ccccc3F)ccc21	> 10
COc1cc(C(=O)NCC(=O)N2CCCc3ccccc32)cc(OC)c1OC	> 10
